## Antibody variant affinities, Ab-14 heavy chain, assay B

All variants were tested on one target, the spike HR2 peptide PDVDLGDISGINAS (SARS-CoV-2).

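The variants were designed computationally from a first round of random CDR variants and then made and measured. Several design methods are mixed in this list. The scFvs were displayed on barcoded MATa yeast, the peptide on MATalpha yeast. Mating (16 h, 30 °C) was followed by selection of diploids and sequencing of their barcodes. The ratio of observed to expected reads was calibrated, replicate by replicate, on BCL2-family standards whose Kd was known from biolayer interferometry. The assay was run in six technical replicates.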

Parent scFv Ab-14: VH joined to VL by a 15-residue (Gly4Ser)3 linker. Changes lie in the heavy chain CDRs alone.
VH: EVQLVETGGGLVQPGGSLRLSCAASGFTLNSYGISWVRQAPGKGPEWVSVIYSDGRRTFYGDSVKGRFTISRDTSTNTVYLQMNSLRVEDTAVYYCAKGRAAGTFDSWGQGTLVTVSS
VL: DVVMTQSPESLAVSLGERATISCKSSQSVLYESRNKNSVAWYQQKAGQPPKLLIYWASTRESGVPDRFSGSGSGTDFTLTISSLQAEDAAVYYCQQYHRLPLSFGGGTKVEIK

Variants are written as CDR1, CDR2 and CDR3 of the heavy chain (limits as in the source). Parent: GFTLNSYGIS, VIYSDGRRTFYGDSVK, GRAAGTFDS. This list holds designs with at most six substitutions. Values are apparent Kd, the geometric mean of the replicates that gave a signal; lower means stronger binding. A pair that was not seen in any replicate is written "nd"; this usually means weak binding, but a binder can also be missed. Some sequences occur more than once in the pool; their replicates are pooled. The authors averaged sequences with at least three values out of six and counted those with two or fewer as poor binders. Values of this round are not directly comparable with the first-round values of the same sequences. Three control strains display no target. For all heavy chain designs, 1% of the pairings with them gave a signal, with a median of 120 nM and one signal in twenty below 7.0 nM, so weak values seen in few replicates may be background. The control count says in how many pairings with the empty strains this scFv gave a signal.

Variant GFTLESYGIS / VIYSDGRRTFYGDSVK / GRAAGTFLQ gave 150 nM (4 of 6 replicates; controls 0 of 18). Variant GFSLNSYGIS / VIYSDGRRTAYGDSVK / GKAAGTFDS gave 1.8 nM (6 of 6 replicates; controls 1 of 18). Variant GFSLNEYGIS / VIYSDGRRTFYGDSVK / GHAAGTFDK showed nd (0 of 6 replicates; controls 0 of 18). With GFTLNEYGIS / VIYSDGRRTFYADSVK / GRAAGTFIS the result was 6.5 nM (4 of 6 replicates; controls 0 of 18). Variant GFSLNDYGIS / VIYSDGRRTFYGDSVK / GRAALTFDQ gave nd (0 of 6 replicates; controls 0 of 18).

With GFELNSYGIS / VIYSDGRRTFYGDSVK / GTTAGTFDS the result was 1.2 nM (6 of 6 replicates; controls 0 of 18). For GFTLNEYGIS / VIYSDGRRTFYGDKVK / GRAAVTFDQ, the assay gave nd (0 of 6 replicates; controls 0 of 18). With GFQLNSYGIS / VIYSDGMRTFYSDNVK / GRTAGTFDS the result was 4.3 nM (6 of 6 replicates; controls 0 of 18). With GFTLNSYGIS / VIYSDGMRTFYGDSVK / GWTAGTFWS the result was 1.6 nM (2 of 6 replicates; controls 0 of 18). For GFTLNSYGIS / VIYADGRRTFYGDSVK / GQAAGTFWS, the assay gave nd (0 of 6 replicates; controls 0 of 18).

With GVNLNSYGIS / VIYSDGRRTFYGDSVK / GRAAGTFDS the result was 8.9 nM (6 of 6 replicates; controls 0 of 18). For GFTLNSYGIS / VIYSDGRRTFYGDSVK / GRAELTFDS, the assay gave nd (0 of 6 replicates; controls 0 of 18). Variant GFSLMSYGIS / VIYSDGRRTFYHDSVK / GRAAGTFDS gave 580 pM (3 of 6 replicates; controls 0 of 18). Variant TFNLNSYGIS / VIYSHGRRTFYQDSVK / GRAAGTFDS showed nd (0 of 6 replicates; controls 1 of 18). With GFTLNSYGIS / VIYSDGLRTFYGDSFK / GRAAGTFDS the result was 94 nM (3 of 6 replicates; controls 0 of 18).

Variant GFTDNDYGIS / VIYSDGRRTFYGDSVK / GSAALTQIS showed nd (0 of 6 replicates; controls 1 of 18). With GFTLNSYGIS / VIYSDGRRTFYIDSFK / GRAAGTFES the result was nd (0 of 6 replicates; controls 0 of 18). For GFSLNDYGIS / VIYSDGRRTFYGDNVK / GRTAGTFDS, the assay gave 660 pM (6 of 6 replicates; controls 0 of 18). For GFTLNSYGIS / VIYADGRRTFYGDSVK / GRAAGTFDM, the assay gave 5.5 nM (8 of 12 replicates; controls 0 of 36). Variant GFTLNEYGIS / VIYSDGKRTFYGDSVK / GRTAGTFDT gave 720 pM (6 of 6 replicates; controls 0 of 18).

Variant GFDLNSYGIS / VIYSDGQRTFYKDSVK / GRTAGTFDS gave 460 pM (6 of 6 replicates; controls 0 of 18). Variant GFTLNSYGIS / VIYSDGRRTFYADSVK / GTASGTFDS gave 23 nM (6 of 6 replicates; controls 0 of 18). For GFTLNSYGIS / VIYSDGRRTFYADDVK / GRVAGTFDK, the assay gave 96 nM (6 of 6 replicates; controls 0 of 18). With GFTLNSYGIS / VIYSDGRRTFYGDSVK / GKQAGTFDN the result was 1.9 nM (2 of 6 replicates; controls 0 of 18). Variant GFDLNSYGIS / VIYSDGRRTFYSDRVK / GQAAGTFDS showed 36 nM (5 of 6 replicates; controls 0 of 18).

Variant GFTLNSYGIS / VIYSDGRRTFYKDSVK / GQAAGTFDS showed 43 nM (6 of 6 replicates; controls 0 of 18). For GFTLNSYGIS / VIYSDGRRTFYGDSVK / GRPAGTFES, the assay gave nd (0 of 6 replicates; controls 0 of 18). For GFNLNSYGIS / VIYSDGRRTFYIDSVK / GKTAGTFDS, the assay gave 12 nM (6 of 6 replicates; controls 2 of 18). For YFSLNSYGIS / VIYSDGRRTFYGDSVK / GKTAGTFDS, the assay gave nd (0 of 6 replicates; controls 0 of 18). Variant GFDLNSYGIS / VIYSDGRRTFYSDSVK / GRTAGTFDQ showed 790 pM (6 of 6 replicates; controls 0 of 18).

Excerpt, the first 3 entries:

CDR-H1	CDR-H2	CDR-H3	Kd (apparent)	replicates with signal	control signals
GFTLESYGIS	VIYSDGRRTFYGDSVK	GRAAGTFLQ	150 nM	4 of 6	0 of 18
GFSLNSYGIS	VIYSDGRRTAYGDSVK	GKAAGTFDS	1.8 nM	6 of 6	1 of 18
GFSLNEYGIS	VIYSDGRRTFYGDSVK	GHAAGTFDK	nd	0 of 6	0 of 18

Data: MIT Lincoln Laboratory AlphaSeq set, Li et al. 2023, doi:10.1038/s41467-023-39022-2, as distributed in FLAb.